Experimental data as given in patent publication US20170088584A1, “USE OF PEPTIDIC DRUGS FOR OS[…] AND BONE REGENERATION” (UNIVERSIDAD NACIONAL AUTONOMA DE MEXICO, priority 2015, published 2017).

Assays:
[1] = system: ovariectomized Wistar rats with osteoporosis; test: histology of liver, kidney, heart, lung, brain, spleen, muscle after 90 days of peptide administration; format: in vivo, Wistar rats (Rattus norvegicus); conditions: 20-50 μg/kg i.p. for 90 days
Description: The control tissues in Panel (A) correspond to: normal tissues: L=liver, K=kidney, H=heart, Lu=lung, B=brain, M=muscle, S=spleen. Panel B) tissues of Wistar rats with osteoporosis treated with the pharmaceutical formulations object of this invention; L=liver, K=kidney, H=heart, Lu=lung, B=brain, S=Spleen M=muscle. […] This means that the synthetic peptides are harmless drugs for osteoporosis treatment, producing no adverse or secondary reactions at cellular or tissue level.

[2] = biodistribution of peptide marked with pertechnetate (99mTc); format: in vivo, Wistar rats
Description: To determine the bio distribution of the peptides object of this invention, they were marked using technetium in the form of pertechnetate (TcO4−). In order to perform the marking, a working solution which contained: 40 ug of the peptides object of this invention, 50 ul of tartrate (2 mg/ml of acetate buffer pH5), 10 μl of SnCl2 (2 mg/ml 0.1 N HCl), 50 μl of gentisic acid (1 mg/ml) and 50 μl of 99m Tc—Na TCO4− (5 mCi) was prepared. Male Wistar rats of 250 g of weight which were at a temperature of 22° C. with a photoperiod of 12 hours and relative humidity at 50% were used. Food and water was ad libitum. To assess bio distribution, groups of three rats were formed and injected intraperitoneally with 40 μl of the marked peptide. They were sacrificed by an overdose of anesthetic at 30’, 1, 3, 6 and 24 hours. Blood samples from the heart, lung, liver, spleen, kidneys, stomach, small intestine, large intestine, muscle, bone, thyroid, brain and tooth were collected. These organs were weighed on an analytical balance and subsequently placed in a NaI(TI) solid scintillation counter to detect the activity of each one of the organs. With this procedure, the percentage of the injected dose per gram of tissue (% ID/g) was obtained.

## AVIFM
[1]
  histological alteration of liver, kidney, heart, lung, brain, spleen, muscle: no histological characteristics suggesting that the administration of peptides in physiological saline solution causes microscopic alteration in these tissues
[2]; kidney, 3 hours
  percentage of injected dose per gram of tissue (% ID/g): 2.4%
[2]; kidney, 24 hours
  percentage of injected dose per gram of tissue (% ID/g): 0.02%
[2]; large intestine, 30′ after i.p. injection
  percentage of injected dose per gram of tissue (% ID/g): 2.1%
[2]; large intestine, 24 hours
  percentage of injected dose per gram of tissue (% ID/g): 0.3%
[2]; liver, 1 hour
  percentage of injected dose per gram of tissue (% ID/g): 2.1%
[2]; liver, 24 hours
  percentage of injected dose per gram of tissue (% ID/g): 0.8%
[2]; small intestine, 1 hour
  percentage of injected dose per gram of tissue (% ID/g): 2.1%
[2]; small intestine, 24 hours
  percentage of injected dose per gram of tissue (% ID/g): 0.08%
